{"source": "patent US9744212B2", "about": "“Galectin-3C combination therapy for human cancer” (Texas Tech University System, priority 2011, dated 2017)", "key": {"[1]": {"tested_on": "HUVEC", "assay": "HUVEC chemotaxis (migration) toward U266 conditioned media", "type": "cell-based, human", "conditions": "U266 treated 48 h with 10 μg/mL Gal-3C, 5 nM Bor or both; 20% conditioned medium; ANOVA, Tukey's post-test", "protocol": "Chemotaxis of HUVEC Cells. Chemotaxis (migration) was analyzed with HUVEC cells as a measure of angiogenic potential as reported (86), using 50×10^3 cells/well and 24-well transwell inserts with 8-μm pores. The lower chamber was filled with 600-μl EGM-2 medium supplemented with 20% V/V conditioned medium, obtained after treatment of U266 cells with 10 μg/mL Gal-3C, 5 nM Bor, or 10 μg/mL Gal-3C with 5 nM Bor for 48 hour, or with 0.6% VN PBS (Gal-3C and Bor vehicle) as a control. As a negative control, EGM-2 medium alone was used. After incubation for 16 h, cells were removed from the upper chamber, and the migrated cells were visualized on the lower side of the filter after fixing and staining with 30% methanol, 10% acetic and 0.1% Coomassie Brilliant Blue. […] The average number of cells in 4 random fields per filter was calculated. The studies were run in triplicate and the results are expressed as a migration index (MI), as follows: MI=number of cells migrated in the presence of conditioned medium/number of cells migrated in the presence of EGM-2 alone. […]\nFIG. 3A is a graph of the results from the vascular endothelial cell migration assay. […] Mean migration indexes (left; ±95% C.I.) expressed as the number of cells migrated in the presence of the indicated stimulus divided by the number of cells migrated in the presence of EBM-2 alone. […]"}, "[2]": {"tested_on": "U266 MM subcutaneous tumors", "assay": "U266 subcutaneous tumor model of MM in NOD/SCID mice", "type": "in vivo", "conditions": "day 35; Gal-3C 30 μg/d/mouse by mini-osmotic pump; Bor six doses of 15 μg via tail vein", "source_text": "Animals: Six-week-old female NOD.CB17-Prkdcscid/J (NOD/SCID) mice were obtained from the Jackson Laboratory (Bar Harbor, Me.). All mice were maintained in filtered-air laminar-flow cabinets under specific pathogen-free conditions. Treatment and care were in accordance with the Institutional Guidelines and the Animal Welfare Assurance Act. All mice were euthanized before they were 10 weeks of age. Testing Gal-3C and Bonin NOD/SCID mouse model of MM: Prior to injection, U266 cells were washed once in Dulbecco's PBS (Sigma-Aldrich), counted, and adjusted to the appropriate density with additional PBS prior to inoculation. […] The primary tumors were measured with a pair of calipers once a week. […] Flow cytometric analysis: The expression of AKAP-4, human IgE, IgG, (heavy chain) k, and A light chains was analyzed by cytofluorimetric techniques as previously described (39). […] Analysis was performed using a fluorescence-activated cell scanner (BD Biosciences). ELISA for human AKAP-4, IgG, E, k, and ? light chain: Blood was collected from each mouse once a week, and an enzyme-linked immunoabsorbent assay (ELISA) was performed on the sera to quantify human AKAP-4, IgG, IgE, k, and ? light chain levels as reported 26. […] Signal intensity was measured on a Victor 2 multimodal microplate reader (PerkinElmer, Mass., USA) at 450 nm. […]"}}, "data": [{"molecule": "CC(C)C[C@H](NC(=O)[C@H](Cc1ccccc1)NC(=O)c1cnccn1)B(O)O", "note": "[Bor, bortezomib, reference compound]", "values": [{"measurement": "migration index compared with controls", "setting": "[1]", "result": "no significant difference"}, {"measurement": "average tumor volume relative to that of the untreated controls", "setting": "[2]", "result": 19.6, "unit": "%"}]}]}
